Assay outcomes deposited in PubChem BioAssay by several laboratories.
MC4R ag barr = MC4R agonists recruiting beta-arrestin, primary screen, cell-based, luminescence, agonist arm of biased-ligand search; U2OS MC4R beta-arrestin complementation; percent of melanotan II response, DMSO zero; activation, % at 8.9 µM; hit rate 0.98% among 360,000; AID 540308, 2011;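 active means activation above a per-plate cutoff, the mean activation of sample wells on that plate plus 3 SD, cut at about 8% in these data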
MC4R antag cAMP = MC4R antagonists of cAMP signaling, primary screen, cell-based, TR-FRET, antagonist arm of biased-ligand search; Melanocortin receptor 4 (Homo sapiens), P32245; MC4R-expressing cells, MTII-stimulated cAMP, LANCE TR-FRET; inhibition, % at 6.5 µM; hit rate 0.48% among 360,000; AID 540295, 2011;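 active means inhibition above its plate's cutoff, the mean of tested wells on that plate plus 3 SD, cut at about 29% in these data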;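 further: 0% = Melanotan II alone and 100% = Melanotan II plus saturating MCL0020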
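Assay system: U2OS-MC4R stable cell line; Also added: Melanotan II; Technique: Eu-cAMP/anti-cAMP TR-FRET, emission 671 nm; Times: 30-min compound, 1-h challenge, 1-h detection, room temperature.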
Yeast UUG start = yeast start codon fidelity modulation | S. cerevisiae UUG-firefly luciferase reporter, luminescence/redox ratio | activity score, % at 18.7 µM | hit rate 0.13% among 350,000 | AID 602363;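 active means replicate mean at a twofold rise or more, about +100% in these data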;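 further: firefly luciferase made from a UUG start codon reports start codon fidelity; reporter light over untreated wells divided by growth signal over untreated wells; some hits fall short of that in this replicate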
HDAC3 inh = HDAC3 deacetylase inhibitors, primary screen, biochemical, fluorescence, cell-free homogeneous | Histone deacetylase 3 (Homo sapiens), O15379 | AID 2718, 2010 | recombinant HDAC3, fluorogenic peptide/trypsin coupled | hit rate 0.15% among 320,000 | inhibition, % at 8.3 µM; in the data active means inhibition above about 26%, passing the limit was not always enough
NALP1 yeast inh = NALP1 inflammasome inhibitors in reconstituted yeast, colorimetric, S. cerevisiae, triplicate retest; S. cerevisiae NALP1/ASC/caspase-1 growth, X-gal OD620, 72 h; inhibition, % at 10 µM; hit rate 0.61% among 280,000; AID 2071, 2009; in the data active means inhibition mostly above about 24%, no sharp cut-off; inactive means mostly below about 32%
ALR H2O2 inh = inhibitors of human sulfhydryl oxidase ALR; P55789; purified ALR, DTT oxidation, H2O2 HRP-luminol luminescence; inhibition, % (test concentration not listed); actives 3.8% (n = 290,000); AID 485317;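 active = mean and each replicate at 75% or more; inconclusive = only one of the two met; inactive = neither met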;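 also: stock transfer was 7.5 nL into about 7.5 µL; 0% = neutral wells and 100% = wells with inactivated enzyme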
cAMP nonselect = nonselective cAMP signaling inhibitors, parental cells, counter-screen for MC4R biased antagonist project, cell-based, TR-FRET, U2OS, forskolin, triplicate; shares compounds with MC4R antag cAMP; LANCE TR-FRET; inhibition, % at 6.5 µM; hit rate 26% among 1,600;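 active means mean inhibition over triplicates above the low-control well mean plus 3 SD, set per campaign, cut at about 13% in these data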;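 further: signal is single emission at 671 nm which falls as cellular cAMP rises; 0% = forskolin-stimulated wells and 100% = buffer without forskolin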
MC4R cAMP antag = MC4R cAMP antagonists, retest, confirmation, cell-based, TR-FRET. inhibition, % at 6.5 µM. hit rate 27% among 1,600. shares compounds with MC4R antag cAMP. AID 602195, 2012. MC4R-expressing cells, MTII-stimulated cAMP; in the data active means inhibition above about 29%;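 further: 0% = agonist stimulated wells alone and 100% = agonist stimulated wells plus saturating reference antagonist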
Numbers without * were called inactive; x = no result; ! = a repeat was not active. The list is not random: actives were taken first. Their share in the collection is about 4.2%.

Amino acid sequences for entries named in this document (tags omitted).
Melanocortin receptor 4 (Homo sapiens), P32245, UniProt P32245, whole entry, looked up: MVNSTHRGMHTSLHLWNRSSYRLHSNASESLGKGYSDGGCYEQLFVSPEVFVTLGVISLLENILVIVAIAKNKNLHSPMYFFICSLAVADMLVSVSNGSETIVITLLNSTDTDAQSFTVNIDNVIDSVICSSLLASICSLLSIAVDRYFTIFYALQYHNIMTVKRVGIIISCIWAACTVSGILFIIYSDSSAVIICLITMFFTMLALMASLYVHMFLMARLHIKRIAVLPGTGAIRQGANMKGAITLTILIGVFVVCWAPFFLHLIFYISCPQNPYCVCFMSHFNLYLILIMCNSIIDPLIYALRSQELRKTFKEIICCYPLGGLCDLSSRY

(1) Cc1ccccc1OCCC(=O)OCC(=O)Nc1cc(S(=O)(=O)N2CCOCC2)ccc1Cl
(2) C[C@@H]1CN([C@@H](C)CO)C(=O)c2cccc(NS(=O)(=O)c3ccc(Cl)cc3)c2O[C@@H]1CN(C)C(=O)NC1CCCCC1
(3) CS(=O)(=O)c1ccc(C(=O)OCC(=O)N2CCN(CCC3CCCCC3)CC2)cc1[N+](=O)[O-]
(4) CS(=O)(=O)c1ccc(C(=O)OCC(=O)NC(=O)C2CCCCC2)cc1[N+](=O)[O-]
(5) CS(=O)(=O)c1ccc(C(=O)OCC(=O)NC(=O)C2COc3ccccc3O2)cc1[N+](=O)[O-] (stereo not drawn)
(6) C/C=C/c1ccc2c(c1)O[C@@H](CN(C)C(=O)C1CC1)[C@@H](C)CN([C@H](C)CO)S2(=O)=O
(7) Cc1cccc(C(=O)Nc2ccc(C(=O)/C=C/c3cccnc3)cc2)c1
(8) O=C(C(=O)N(Cc1ccccc1)Cc1ccccc1)c1c(-c2ccccc2)[nH]c2ccccc12
(9) S=c1[nH]nc(C(c2ccccc2)C2CCCCC2)o1 (stereo not drawn)
(10) S=c1[nH]nc(C2(c3ccccc3)CCCC2)o1

| Assay by compound | 1 | 2 | 3 | 4 | 5 | 6 | 7 | 8 | 9 | 10 |
| --- | --- | --- | --- | --- | --- | --- | --- | --- | --- | --- |
| MC4R ag barr | 1 | x | -3 | -4 | -2 | x | 0 | 2 | 0 | -1 |
| MC4R antag cAMP | 35* | x | 15 | 33* | 31* | x | 30* | 50* | 30* | -3 |
| Yeast UUG start | -26 | 14 | -4 | x | 4 | -10 | -1 | -11 | x | x |
| HDAC3 inh | 0 | x | x | -5 | -11 | x | 1 | x | x | -8 |
| NALP1 yeast inh | 0 | x | x | 2 | x | x | 35 | x | 1 | x |
| ALR H2O2 inh | 6 | x | x | x | 6 | x | x | x | x | 26 |
| cAMP nonselect | 2 | x | x | 25* | 13 | x | -9 | 1 | 2 | x |
| MC4R cAMP antag | 3 | x | x | 43* | 21 | x | 2 | 11 | 2 | x |

Pulled by structure from above:
(9) S=c1[nH]nc(C(c2ccccc2)C2CCCCC2)o1 (stereo not drawn)
(7) Cc1cccc(C(=O)Nc2ccc(C(=O)/C=C/c3cccnc3)cc2)c1
(5) CS(=O)(=O)c1ccc(C(=O)OCC(=O)NC(=O)C2COc3ccccc3O2)cc1[N+](=O)[O-] (stereo not drawn)
(3) CS(=O)(=O)c1ccc(C(=O)OCC(=O)N2CCN(CCC3CCCCC3)CC2)cc1[N+](=O)[O-]

| Assay by compound | 9 | 7 | 5 | 3 |
| --- | --- | --- | --- | --- |
| MC4R ag barr | 0 | 0 | -2 | -3 |
| MC4R antag cAMP | 30* | 30* | 31* | 15 |
| Yeast UUG start | x | -1 | 4 | -4 |
| HDAC3 inh | x | 1 | -11 | x |
| NALP1 yeast inh | 1 | 35 | x | x |
| ALR H2O2 inh | x | x | 6 | x |
| cAMP nonselect | 2 | -9 | 13 | x |
| MC4R cAMP antag | 2 | 2 | 21 | x |

Going on with the list:
(11) O=c1[nH]c(SCc2ccc(Cl)cc2)nc2ccsc12
(12) CSc1nc(-c2ccccc2)c(C#N)c(=O)[nH]1
(13) N#Cc1c(-c2cccs2)nc(SCc2ccc(Cl)cc2)[nH]c1=O
(14) CCOc1ccc2nc(NC(=O)CSc3cn[nH]n3)sc2c1
(15) CNC(=O)NC(=O)CSc1nc(-c2cccs2)c(C#N)c(=O)[nH]1
(16) CCOc1ccc2nc(NC(=O)CSc3nc(-c4ccccc4)c(C#N)c(=O)[nH]3)sc2c1
(17) CSc1nc(-c2cccs2)c(C#N)c(=O)[nH]1
(18) C[C@@H]1CN([C@@H](C)CO)C(=O)Cc2cc(NC(=O)c3ccncc3)ccc2O[C@H]1CN(C)CC1CCCCC1
(19) CC(C)(C)c1ccc(C(=O)O)c(C(=O)c2ccccc2)c1
(20) CC(C)(C)c1ccc(C(=O)O)c(C(=O)c2ccc(C(=O)O)cc2)c1

| Assay by compound | 11 | 12 | 13 | 14 | 15 | 16 | 17 | 18 | 19 | 20 |
| --- | --- | --- | --- | --- | --- | --- | --- | --- | --- | --- |
| MC4R ag barr | x | 1 | 0 | -2 | -1 | 0 | -1 | x | 5 | 0 |
| MC4R antag cAMP | x | 21 | 58* | 19 | 121* | 31* | 45* | x | 31* | 12 |
| Yeast UUG start | x | -17 | x | -27 | x | x | -9 | -7 | x | -13 |
| HDAC3 inh | 1 | 2 | x | 2 | x | x | 2 | x | 7 | -10 |
| NALP1 yeast inh | 8 | x | -11 | 14 | -13 | -1 | 6 | x | 10 | 16 |
| ALR H2O2 inh | -6 | x | x | 1 | x | x | x | x | 3 | 2 |
| cAMP nonselect | x | x | 43* | x | 87* | 8 | 43* | x | 3 | x |
| MC4R cAMP antag | x | x | 80* | x | 153* | 18 | 85* | x | -8 | x |

(21) C[C@H](CO)N1C[C@H](C)[C@H](CN(C)C(=O)CC2CC2)Oc2ncc(C#CC3(O)CCCC3)cc2C1=O
(22) COc1cccc(CNC(=O)C[C@@H]2C=C[C@H](NC(=O)C3CC3)[C@H](CO)O2)c1
(23) Nc1nc(N2CCCCC2)c(C=O)c(N2CCCCC2)n1
(24) Nc1nc(Cl)c(C=O)c(N2CCCCC2)n1
(25) Cc1ccc(S(=O)(=O)NC2CCCc3ccccc32)cc1C (stereo not drawn)
(26) O=S(=O)(NC1CCc2ccccc21)c1ccccc1 (stereo not drawn)
(27) CO/N=C/c1ccc(Sc2ccc(C)cc2)c([N+](=O)[O-])c1
(28) Cc1noc(C)c1S(=O)(=O)Nc1ccc2c(c1)CC(=O)N([C@@H](C)CO)C[C@@H](C)[C@H](CN(C)Cc1ccc(C(=O)Nc3ccccc3N)cc1)O2
(29) Cc1ccc(-c2ccc3c(c2)O[C@@H](CN(C)C(=O)CN(C)C)[C@H](C)CN([C@@H](C)CO)S3(=O)=O)cc1
(30) O=C(CN1CCOCC1)NCC[C@H]1CC[C@H](NC(=O)Cc2ccccn2)[C@@H](CO)O1

| Assay by compound | 21 | 22 | 23 | 24 | 25 | 26 | 27 | 28 | 29 | 30 |
| --- | --- | --- | --- | --- | --- | --- | --- | --- | --- | --- |
| MC4R ag barr | x | x | 1 | -2 | 4 | 0 | -1 | x | x | x |
| MC4R antag cAMP | x | x | 28 | 37* | 31* | 4 | 29* | x | x | x |
| Yeast UUG start | -1 | -3 | x | -18 | 17 | -24 | -11 | 9 | 5 | 11 |
| HDAC3 inh | x | x | 0 | 3 | 12 | x | 0 | x | x | x |
| NALP1 yeast inh | x | x | 15 | 15 | 13 | x | 13 | x | x | x |
| ALR H2O2 inh | x | x | 5 | x | -3 | x | -11 | x | x | x |
| cAMP nonselect | x | x | x | 20* | -1 | x | -2 | x | x | x |
| MC4R cAMP antag | x | x | x | 28 | 11 | x | -12 | x | x | x |

(31) CC1CCN(C(=O)Cn2cnc3c(cnn3C(C)(C)C)c2=O)CC1
(32) C[C@@H]1CN([C@H](C)CO)C(=O)c2cc(-c3ccc(F)cc3)cnc2O[C@H]1CN(C)C(=O)NC1CCCC1
(33) Cc1ccc(F)c(NC(=O)c2cncn2-c2ccccc2)c1
(34) NC(=NCCCCCCN=C(N)/N=C(\N)Nc1ccc(Cl)cc1)/N=C(\N)Nc1ccc(Cl)cc1
(35) CC(C)N=C(N)N=C(N)Nc1ccc(Cl)cc1
(36) CC1=NOC(=O)/C1=C/c1ccc(-c2ccc(Cl)cc2)o1
(37) COCC#Cc1cnc2c(c1)C(=O)N([C@@H](C)CO)C[C@H](C)[C@H](CN(C)C(=O)Nc1ccccc1OC)O2
(38) COc1ccc(NS(=O)(=O)c2ccc(-n3cnnn3)cc2)cc1OC
(39) COc1ccc(S(=O)(=O)Nc2ccc(-n3cnnn3)cc2)cc1Br
(40) CC(C)(C)OC(=O)NCc1ccc(NC(=O)c2nc[nH]c2C(=O)N[C@@H](Cc2ccccc2)C(=O)OCc2ccccc2)cc1
(41) Nc1nc(Sc2ccc(C(F)(F)F)cn2)n[nH]1

| Assay by compound | 31 | 32 | 33 | 34 | 35 | 36 | 37 | 38 | 39 | 40 | 41 |
| --- | --- | --- | --- | --- | --- | --- | --- | --- | --- | --- | --- |
| MC4R ag barr | 3 | x | -1 | 2 | -1 | -3 | x | 2 | -2 | 95* | -2 |
| MC4R antag cAMP | 36* | x | 30* | 80*! | 12 | 63* | x | 29* | -9 | 63* | 30* |
| Yeast UUG start | x | -6 | -16 | -12 | -10 | -7 | 6 | -7 | 3 | -21 | -17 |
| HDAC3 inh | -2 | x | 3 | 10 | x | -5 | x | x | x | -8 | 6 |
| NALP1 yeast inh | -5 | x | 3 | 21 | x | 4 | x | -13 | x | x | 37 |
| ALR H2O2 inh | -4 | x | 14 | 2 | x | 15 | x | -31 | x | -7 | -8 |
| cAMP nonselect | -3 | x | 0 | -11 | x | 11 | x | 3 | x | -5 | -6 |
| MC4R cAMP antag | 1 | x | -9 | 71* | x | 31* | x | -17 | x | 36* | -20 |
